Among the data in patent publication US11723362B2, “Broad-spectrum synergistic antimicrobial compositions” (The United States of America, as represented by the …, priority 2019, dated 2023) are MIC values, retold here.

Molecules are shown by their SMILES.

Holding throughout (assay): Minimum inhibitory concentration (MIC) in Mueller-Hinton broth, pH 7.4
In one assay the test system is A. brasiliensis. Type of assay: cell-based, Aspergillus brasiliensis. The protocol: (§1) This example illustrates the preparation of testing parameters for antimicrobial activity of components of the inventive composition and related compositions for comparison. […] Microbes were grown on Mueller-Hinton agar (MHA, Sigma-Aldrich, St. Louis, Mo.) for 7 days until heavy sporulation was present. Spores from two agar plates were captured in sterile phosphate-buffered saline (PBS) using a sterile swab. Spores were enumerated by serial dilution in Dey-Engley neutralizing broth (DEB; Sigma-Aldrich) and spread plating on MHA. A typical spore stock was determined to contain ˜2×10^7 spores/mL. Bacteria were grown in MH broth for 24 h at 37° C., enumerated by plating, and diluted to the desired concentration as indicated.
(§2) To assess the antimicrobial activity of hydroxamic acids and derivatives, the inhibitory properties of commercially available hydroxylamines and hydroxamic acids were compared to their alcohol and carboxylic acid analogues diluted in Mueller-Hinton broth at pH 7.4 (Table 1).

The subject of another assay is E. coli. Type of assay: cell-based, Escherichia coli. The protocol:
as §1, §2

A further assay relates to P. aeruginosa. Type of assay: cell-based, Pseudomonas aeruginosa. The method, then:
as §1, §2
Guanylhydrazones 7 and 8, which represent a class of broad-spectrum antimicrobials, alone and in combination with hydroxamic acids were evaluated.

Another assay relates to S. aureus. Type of assay: cell-based, Staphylococcus aureus. The method, then: as §1, §2
The next assay relates to C. albicans. It is filed as cell-based, Candida albicans. The protocol:
as §1, §2

Turning to `O=C(NO)c1ccccc1O` [Salicylhydroxamic acid], the MIC is reported as 0.5 wt % with A. brasiliensis; 0.2 wt % in the assay on E. coli; 0.06 wt % in the assay with P. aeruginosa; 0.03 wt % in the assay with S. aureus; 0.5 wt % with C. albicans.
